Laboratory results published in patent publication EP4831169A1, “NOVEL COMPOUND USED AS CBP/P300 INHIBITOR, AND PHARMACEUTICAL COMPOSITION FOR PREVENTING OR TREATING CANCER, INFLAMMATORY DISORDERS, OR AUTOIMMUNE DISEASES COMPRISING SAME AS ACTIVE INGREDIENT” (dated 2026).

Amino acid sequences for entries named in this document (tags omitted). Residues count along the entry.
UniProt Q92793, 1085-1192 limits assumed: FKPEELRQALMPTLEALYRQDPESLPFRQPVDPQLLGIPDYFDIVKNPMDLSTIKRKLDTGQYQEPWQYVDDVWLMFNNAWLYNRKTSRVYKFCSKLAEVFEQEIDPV

Columns and labels:
[1] = target: BRD4 (BD1) protein (Homo sapiens, UniProt O60885); test: BRD4 bromodomain TR-FRET inhibitory activity assay; details: read-out: BRD4 (BD1) IC50, Table 4
Experimental: BRD inhibitory activity was measured using a time resolved fluorescence resonance energy transfer (TR-FRET) experiment to verify the activity of BRD4 bromodomain.
The assay was performed in a final volume of 14 µL, optimized based on a CREBBP time resolved fluorescence resonance energy transfer (TR-FRET) assay kit (BPS Bioscience, cat. 32613) to maximize an assay window, and performed in a final volume of 14 µL, while maximizing the assay window. A TR-FRET fluorescence acceptor and a Tb donor were diluted in an assay buffer containing 2-[4-(2-hydroxyethyl)piperazin-1-yl]ethanesulfonic acid (HEPES) (hereafter, referred to as an assay buffer, BPS Bioscience, cat. 33012), and 3 µL of each solution was transferred to all wells of a white 384-low-volume well plate (Corning, cat. 4513). 2 µL of 4X Ac-H4 peptide (final concentration 15 nM) was transferred to high control wells and test wells. Each compound was prepared at 10 concentration points by serially diluting 3-fold from the highest concentration in a dimethyl sulfoxide (DMSO) solvent. The compound at each concentration was then diluted in the assay buffer to prepare a diluted compound solution that was 4-fold more concentrated than the final concentration. 2 µL of each compound or dimethyl sulfoxide prepared in this way was distributed into an assay plate so that the final test concentration was a minimum of 0.5 µM to a maximum of 10 µM (final DMSO concentration 1%). 6 µL of 1X assay buffer was added to low control wells and 2 µL was added to high control and test wells. Then, 2 µL of 4X BRD4 (BD1) protein (final concentration 7.5 nM, BPS bioscience, cat 31040) was added to initiate a PPI reaction. The plate was reacted at room temperature for 2 hours before measuring the signal. The TR-FRET signal was measured using an EnVision Multilabel plate reader (PerkinElmer; Mirror LNACE/DELFIA Dual/Bias). For data analysis, the values of each well were obtained using the TR-FRET ratio ((Signal 665 nm/Signal 615 nm)×20000). Data analysis was performed using the TR-FRET ratio ((Signal 665 nm/Signal 615 nm)×20000). Data were reported as percent inhibition compared to control wells based on the following equation: %Activity = ((FRETcompound - FRETLow av)/(FRETHigh av - FRETLow av))×100. IC50 analysis was determined by standard 4 parameter curve fitting according to an algorithm using GraphPad Prism 7.0 (GraphPad Software Inc., La Jolla, CA, USA). All data are expressed as mean ± standard error of the mean (SEM).

[2] = target: CBP BRD protein (Homo sapiens, UniProt Q92793); test: CBP bromodomain TR-FRET inhibitory activity assay; details: read-out: CBP BRD IC50, Table 3
Experimental: A time resolved fluorescence resonance energy transfer (TR-FRET) experiment was used to verify the activity of CBP bromodomain.
The assay was performed in a final volume of 14 µL, optimized based on a CREBBP time resolved fluorescence resonance energy transfer (TR-FRET) assay kit (BPS Bioscience, cat. 32619) to maximize an assay window, and performed in a final volume of 14 µL, while maximizing the assay window. A TR-FRET fluorescence acceptor and a Tb donor were diluted in an assay buffer containing 2-[4-(2-hydroxyethyl)piperazin-1-yl]ethanesulfonic acid (HEPES) (hereafter, referred to as an assay buffer, BPS Bioscience, cat. 33012), and 3 µL of each solution was transferred to all wells of a white 384-low-volume well plate (Corning, cat. 4513). 2 µL of 4X Ac-H4 peptide (final concentration 85 nM) was transferred to high control wells and test wells. Each compound was prepared at 10 concentration points by serially diluting 3-fold from the highest concentration in a dimethyl sulfoxide solvent. The compound at each concentration was then diluted in the assay buffer to prepare a diluted compound solution that was 4-fold more concentrated than the final concentration. 2 µL of each compound or dimethyl sulfoxide prepared in this way was distributed into an assay plate so that the final test concentration was a minimum of 0.5 µM to a maximum of 10 µM (final dimethyl sulfoxide concentration 1%). 6 µL of 1X assay buffer was added to low control wells and 2 µl was added to high control and test wells. Then, 2 µL of 4X CBP BRD protein (final concentration 7.5 nM, BPS bioscience, cat 31128) was added to initiate a PPI reaction. The plate was reacted at room temperature for 2 hours before measuring the signal. The TR-FRET signal was measured using an EnVision Multilabel plate reader (PerkinElmer; Mirror LNACE/DELFIA Dual/Bias). For data analysis, the values of each well were obtained using a TR-FRET ratio ((Signal 665 nm/Signal 615 nm)×20000). Data analysis was performed using the TR-FRET ratio ((Signal 665 nm/Signal 615 nm)×20000). Data were reported as percent inhibition compared to control wells based on the following equation: %Activity = ((FRETcompound - FRETLow av)/(FRETHigh av - FRETLow av))×100. IC50 analysis was determined by standard 4 parameter curve fitting according to an algorithm using GraphPad Prism 7.0 (GraphPad Software Inc., La Jolla, CA, USA). All data are expressed as mean ± standard error of the mean (SEM).

Row | Molecule | pIC50 [1] | pIC50 [2]
1 | COC1(C)CN(c2cc(-n3c(-c4cncn4C)nc4cc(-c5cnn(C)c5)c(C#N)cc43)cc3c2n(C)c(=O)n3C)C1 | < 5.30 | > 6.30
2 | Cn1cc(-c2cc3nc(-c4cncn4C)n(-c4cc(-c5ccc(F)cc5)c5c(c4)n(C)c(=O)n5C)c3cc2F)cn1 | < 5.30 | > 6.30
3 | CC(=O)Oc1cc2c(cc1-c1cnn(C)c1)nc(C(C)(C)C)n2-c1cc(N2CC(C)(O)C2)c2c(c1)n(C)c(=O)n2C | < 5.30 | > 6.30
4 | COC(=O)c1cc2nc(C(C)(C)C)n(-c3cc(N4CCOCC4)c4c(c3)n(C)c(=O)n4C)c2cc1F | < 5.30 | > 6.30
5 | Cn1cc(-c2cc3nc(C(C)(C)C)n(-c4cc(N5CC(C)(O)C5)c5c(c4)n(C)c(=O)n5C)c3cc2OCc2ccccc2)cn1 | < 5.30 | > 6.30
6 | CNC(=O)c1ccc(-c2ccc3c(c2)nc(-c2cncn2C)n3-c2cc(C3CCOCC3)c3c(c2)n(C)c(=O)n3C)cc1F | < 5.30 | > 6.30
7 | CN(C)c1ccc(Nc2cc(-n3c(-c4cncn4C)nc4cc(-c5cnn(C)c5)c(F)cc43)cc3c2n(C)c(=O)n3C)cc1 | < 5.30 | > 6.30
8 | Cn1cc(-c2cc3nc(C(C)(C)C)n(-c4cc(C5CCOCC5)c5c(c4)n(C)c(=O)n5C)c3cc2C(F)F)cn1 | < 5.30 | > 6.30
9 | 4-(3-allyloxy-3-methyl-azetidin-1-yl)-6-[2-tert-butyl-6-(difluoromethyl)-5-(1-methylpyrazol-4-yl)benzimidazol-1-yl]-1,3-dimethyl-benzimidazol-2-one | < 5.30 | > 6.30
10 | CC(C)Cc1cc(-n2c(-c3cncn3C)nc3cc(-c4cnn(C)c4)c(F)cc32)cc2c1n(C)c(=O)n2C | < 5.30 | > 6.30
11 | C[C@H]1CCN1c1cc(-n2c(-c3cncn3C)nc3cc(-c4cnn(C)c4)c(F)cc32)cc2c1n(C)c(=O)n2C | < 5.30 | > 6.30
12 | Cn1cc(-c2cc3nc(C(C)(C)C)n(-c4cc(N5CC(C)(O)C5)c5c(c4)n(C)c(=O)n5C)c3cc2O)cn1 | < 5.30 | > 6.30
13 | Cn1cc(-c2cc3nc(-c4cncn4C)n(-c4cc(N5CCC(F)(F)CC5)c5c(c4)n(C)c(=O)n5C)c3cc2F)cn1 | < 5.30 | > 6.30
14 | Cn1cc(-c2cc3nc(C(C)(C)C)n(-c4cc(N5CC(C)(O)C5)c5c(c4)n(C)c(=O)n5C)c3cc2OC(F)F)cn1 | 5.30 to 6.30 | > 6.30
15 | CC(C)Nc1cc(-n2c(-c3cncn3C)nc3cc(-c4cnn(C)c4)c(C#N)cc32)cc2c1n(C)c(=O)n2C | < 5.30 | > 6.30
16 | CC(C)n1cc(-c2cc3nc(C(C)(C)C)n(-c4cc(N5CC(C)(O)C5)c5c(c4)n(C)c(=O)n5C)c3cc2C(F)(F)F)cn1 | < 5.30 | > 6.30
17 | Cn1cncc1-c1nc2cc(-c3cnn(CC(F)(F)F)c3)c(F)cc2n1-c1cc(N2CCOCC2)c2c(c1)n(C)c(=O)n2C | < 5.30 | > 6.30
18 | Cc1ncc(-c2cc3nc(C(C)(C)C)n(-c4cc(N5CC(C)(O)C5)c5c(c4)n(C)c(=O)n5C)c3cc2OCc2ccccc2)s1 | < 5.30 | > 6.30
19 | CC(C)c1cc(-n2c(C3(C)CC3)nc3cc(-c4cnn(C)c4)c(F)cc32)cc2c1n(C)c(=O)n2C | < 5.30 | 5.30 to 6.30
20 | Cc1ncc(-c2cc3nc(C(C)(C)C)n(-c4cc(N5CCOCC5)c5c(c4)n(C)c(=O)n5C)c3cn2)s1 | < 5.30 | > 6.30
21 | C#CC(C)(C)c1nc2cc(-c3cnn(C)c3)c(F)cc2n1-c1cc(C(C)C)c2c(c1)n(C)c(=O)n2C | < 5.30 | > 6.30
22 | Cc1ncc(-c2cc3nc(C(C)(C)C)n(-c4cc(N5CCOCC5)c5c(c4)n(C)c(=O)n5C)c3cc2F)o1 | < 5.30 | > 6.30
23 | Cn1cc(-c2cc3nc(-c4cncn4C)n(-c4cc(C5CCOCC5)c5c(c4)n(C)c(=O)n5C)c3cc2C(F)(F)F)cn1 | < 5.30 | > 6.30
24 | Cn1cc(-c2cc3nc(-c4cncn4C)n(-c4cc(OCC5CC5)c5c(c4)n(C)c(=O)n5C)c3cc2F)cn1 | < 5.30 | > 6.30
25 | CN1CCN(c2cc(-n3c(C(C)(C)C)nc4cc(-c5cnn(C)c5)c(C(F)F)cc43)cc3c2n(C)c(=O)n3C)CC1 | < 5.30 | > 6.30

Other lines, results leading:

Row | pIC50 [1] | pIC50 [2] | Molecule
26 | < 5.30 | > 6.30 | Cn1cc(-c2cc3nc(C(C)(C)C)n(-c4cc(N5CCC(O)CC5)c5c(c4)n(C)c(=O)n5C)c3cc2C(F)(F)F)cn1
27 | 5.30 to 6.30 | > 6.30 | Cn1cc(-c2cc3nc(-c4cncn4C)n(-c4cc(N5CCC(=O)CC5)c5c(c4)n(C)c(=O)n5C)c3cc2C(F)F)cn1
28 | < 5.30 | > 6.30 | C[C@H]1[C@H](O)CN1c1cc(-n2c(-c3cncn3C)nc3cc(-c4cnn(C)c4)c(F)cc32)cc2c1n(C)c(=O)n2C
29 | < 5.30 | > 6.30 | Cn1cc(-c2cc3nc(-c4cncn4C)n(-c4cc(NCC5CCCCC5)c5c(c4)n(C)c(=O)n5C)c3cc2F)cn1
30 | < 5.30 | > 6.30 | Cn1cc(-c2cc3nc(C(C)(C)C)n(-c4cc(N5CC(F)(F)C5)c5c(c4)n(C)c(=O)n5C)c3cc2F)cn1
31 | 5.30 to 6.30 | > 6.30 | Cc1ccc2c(-c3nc4cc(-c5cnn(C)c5)c(CO)cc4n3-c3ccc4c(c3)n(C)c(=O)n4C)c[nH]c2c1
32 | < 5.30 | > 6.30 | CC(C)Oc1cc(-n2c(C(C)(C)C)nc3cc(-c4cnn(C)c4)c(F)cc32)cc2c1n(C)c(=O)n2C
33 | < 5.30 | > 6.30 | CCn1cc(-c2cc3nc(-c4cncn4C)n(-c4cc(N5CCOCC5)c5c(c4)n(C)c(=O)n5C)c3cc2F)cn1
34 | 5.30 to 6.30 | > 6.30 | Cn1cc(-c2cc3nc(-c4cncn4C)n(-c4cc(N5CCCC5)c5c(c4)n(C)c(=O)n5C)c3cc2F)cn1
35 | < 5.30 | > 6.30 | CC(C)n1cc(-c2cc3nc(C(C)(C)C)n(-c4cc(N5CC(C)(O)C5)c5c(c4)n(C)c(=O)n5C)c3cc2C(F)F)cn1
36 | < 5.30 | > 6.30 | Cn1cc(-c2cc3nc(C(C)(C)C)n(-c4cc(N5CCOCC5)c5c(c4)n(C)c(=O)n5C)c3cn2)cn1
37 | < 5.30 | 5.30 to 6.30 | Cn1cc(-c2cc3nc(-c4cncn4C)n(-c4cc(C5=CCNCC5)c5c(c4)n(C)c(=O)n5C)c3cc2F)cn1
38 | < 5.30 | 5.30 to 6.30 | CC(C)n1c(=O)n(C)c2cc(-n3c(-c4cncn4C)nc4cc(-c5cnn(C)c5)c(F)cc43)ccc21
39 | < 5.30 | > 6.30 | Cn1cc(-c2cc3nc(C(C)(C)C)n(-c4cc(O)c5c(c4)n(C)c(=O)n5C)c3cc2C(F)F)cn1
40 | < 5.30 | > 6.30 | Cn1cc(-c2cc3nc(C(C)(C)C)n(-c4cc(N5CCC5)c5c(c4)n(C)c(=O)n5C)c3cc2C(F)F)cn1

pIC50: −log10 of the molar value.
